Earlier results as cited in patent US20070072181A1 (priority 2003, published 2007).

Test system: suitable virus (e.g. encephalomyocarditis virus (EMC), vesicular stomatitis virus, Semliki forest virus)
Conditions: cited from earlier work

Substance: IFN-α 2b: interferon alpha-2b, administered at 11.54 μg protein three times a week
- specific activity: 2.68×10^6 IU/mg
